Assay results reported in paper PMC7230162, “Syntheses and Glycosidase Inhibitory Activities, and in Silico Docking Studies of Pericosine E Analogs Methoxy-Substituted at C6” (Marine Drugs, 2020).

Chains of the proteins cited; added tags and fusions are not shown. Residues count along the entry.
UniProt C0HJB3, 563-981: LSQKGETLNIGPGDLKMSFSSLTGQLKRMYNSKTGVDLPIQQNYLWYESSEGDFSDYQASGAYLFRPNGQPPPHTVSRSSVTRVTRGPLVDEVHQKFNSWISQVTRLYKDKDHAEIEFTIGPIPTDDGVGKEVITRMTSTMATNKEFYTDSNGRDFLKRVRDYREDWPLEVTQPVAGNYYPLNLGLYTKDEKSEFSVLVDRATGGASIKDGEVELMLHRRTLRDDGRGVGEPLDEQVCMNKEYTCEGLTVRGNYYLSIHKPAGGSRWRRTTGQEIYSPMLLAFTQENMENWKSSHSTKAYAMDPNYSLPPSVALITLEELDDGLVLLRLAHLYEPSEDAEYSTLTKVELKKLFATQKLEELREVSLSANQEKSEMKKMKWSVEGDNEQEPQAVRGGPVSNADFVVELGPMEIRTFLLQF
UniProt C0HJB3, 1-562: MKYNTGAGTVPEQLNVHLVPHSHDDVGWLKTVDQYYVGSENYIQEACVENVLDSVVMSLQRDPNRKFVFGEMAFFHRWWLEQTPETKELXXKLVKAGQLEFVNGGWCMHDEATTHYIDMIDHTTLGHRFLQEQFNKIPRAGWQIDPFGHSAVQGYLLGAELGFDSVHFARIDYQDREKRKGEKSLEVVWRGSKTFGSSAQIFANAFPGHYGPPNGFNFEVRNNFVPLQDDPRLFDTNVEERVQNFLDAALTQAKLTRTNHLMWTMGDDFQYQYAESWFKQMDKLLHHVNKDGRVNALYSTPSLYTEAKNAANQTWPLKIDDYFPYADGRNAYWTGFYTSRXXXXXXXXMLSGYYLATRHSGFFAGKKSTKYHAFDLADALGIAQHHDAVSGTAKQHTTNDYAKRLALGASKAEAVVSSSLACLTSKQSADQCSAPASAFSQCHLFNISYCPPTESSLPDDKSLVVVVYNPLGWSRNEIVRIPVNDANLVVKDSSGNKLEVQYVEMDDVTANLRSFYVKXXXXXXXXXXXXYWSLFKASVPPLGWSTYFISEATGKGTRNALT

Biological target: T1, α-mannosidase (Jack Bean) (Canavalia ensiformis, UniProt C0HJB3)
T1 construct: purchased Sigma-Aldrich Co., LLC lot 055K7047 (catalogue number not given)
Assay: biochemical
Protocol: Infrared (IR) spectra were recorded on a 1720X Fourier transformation-infrared (FT-IR) spectrometer (Perkin Elmer, MA, USA) or an IRAffinity-1S FT-IR spectrometer (Shimadzu, Kyoto, Japan). High-resolution mass spectra (HRMS) were recorded on a JMS-700 (2) mass spectrometer (JEOL, Tokyo, Japan). Nuclear magnetic resonance (NMR) spectra were recorded at 27 °C on 400-MR-DD2 (Agilent Technologies, CA, USA) and 600-DD2 (Agilent Technologies, CA, USA) instruments in CDCl3 or acetone-d6 using tetramethylsilane as an internal standard. Specific rotations were measured with a JASCO P-2300 spectrometer (JASCO Co., Tokyo, Japan). Liquid column chromatography was conducted on silica gel (Fuji Silysia FL-60D). Analytical thin layer chromatography (TLC) was performed on Silicagel 70 F254 plates (Wako Pure Chemical Industries, Tokyo, Japan), and compounds were detected by dipping the plates into an ethanolic solution of phosphomolybdic acid followed by heating. Microwave (MW)-aided reactions were carried out in a Biotage Initiator® reactor (PartnerTech Atvidaberg AB for Biotage Sweden AB, Uppsala, Sweden). NaBH4 and trifluoroacetic acid (TFA) were purchased from Wako Pure Chemical Industries (Wako Pure Chemical Industries, Tokyo, Japan). BF3·Et2O was purchased from Sigma-Aldrich Co., LLC (St. Lewis, MO, USA). DMP was purchased from TCI (Tokyo Chemical Industry Co., Ltd., Tokyo, Japan). […] Deoxygalactonojirimycin was purchased from Funakoshi Co., Ltd., Tokyo, Japan).
After 20 min incubation at 37 °C, the reaction was quenched by addition of Na2CO3 solution (0.5 M, 100 μL). The amount of liberated p-nitrophenol was measured colorimetrically at 400 nm (optical density at 400 nm: ODtest).
Assays of β-glucosidase, α-mannosidase, β-mannosidase, and β-galactosidase inhibitory activities were carried out as above using p-nitrophenyl-β-D-glucopyranoside, p-nitrophenyl-α-D-mannopyranoside, p-nitrophenyl-β-D-mannopyranoside, and p-nitrophenyl-β-D-galactopyranoside as substrates.

SMILES	IC50 [mM]
COC(=O)C1=CC(O)C(O)C(O)C1OC1C(OC)C(C(=O)OC)=CC(O)C1O (single isomer, unassigned; (-)) [(−)-9]	> 7.8
COC(=O)C1=CC(O)C(O)C(O)C1OC1C(OC)C(C(=O)OC)=CC(O)C1O (single isomer, unassigned; (-)) [(−)-24]	> 7.8
COC(=O)C1=C[C@H](O)[C@H](O)[C@H](O[C@H]2C(C(=O)OC)=C[C@@H](O)[C@@H](O)[C@@H]2O)[C@@H]1OC [(−)-18]	> 7.8
COC(=O)C1=C[C@@H](O)[C@@H](O)[C@@H](O[C@H]2C(C(=O)OC)=C[C@@H](O)[C@@H](O)[C@@H]2O)[C@@H]1OC [(−)-21]	> 7.8
OC[C@H]1NC[C@H](O)[C@@H](O)[C@@H]1O [Deoxynojirimycin (DNJ), 1-Deoxynojirimycin, reference compound]	> 7.8
